Experimental data reported in publication PMC5584245 (Oncotarget, 2017).

How the values were obtained:
[1] = target: T1, membrane CD24 on hepatoma cells (Huh-7, BEL-7402) (Homo sapiens, UniProt P25063); experiment: flow cytometry on cells; antibody on Huh-7 and BEL-7402 hepatoma cells, also after RNA interference against CD24; procedure as in ref. 12; conditions: one partner purified
T1 construct: cluster of differentiation 24 (CD24), GPI-linked membrane protein, endogenous on human hepatoma cell lines; also called CD24 receptors; CD24 ligand; source: endogenous, on Huh-7 and BEL-7402 cells
T1 chain: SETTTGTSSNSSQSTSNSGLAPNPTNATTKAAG

CD24-GST = target: T2, CD24-GST (Homo sapiens, UniProt P25063); experiment: SPR; Biacore X100; CD24-GST flowed over immobilized antibody; 1:1 binding model; procedure as in ref. 45; conditions: both partners purified
T2 construct: cluster of differentiation 24 (CD24) fused to GST; also called GST-CD24
T2 chain: T1 chain

[2] = target: T1, membrane CD24 on hepatoma cells (Huh-7, …); experiment: cell-based or functional assay

binding rate to BEL-7402 cells [1]: 69.1%
binding rate to Huh-7 cells [1]: 77.9%
koff (CD24-GST): 0.000455 s⁻¹
kon (CD24-GST): 799000 M⁻¹ s⁻¹
ADCC: lysis of BEL-7402 cells by NK92-FcR cells, E/T ratio 10:1, 100 μg/mL hG7-BM3 (LDH release) [2]: 40.7%
ADCC: lysis of Huh-7 cells by NK92-FcR cells, E/T ratio 10:1, 100 μg/mL hG7-BM3 (LDH release) [2]: 42.2%
tumor/normal tissue ratio at 4 h, near-infrared imaging of IRB-hG7-BM3 in Huh-7-bearing nude mice (1.14 in the group blocked with free hG7-BM3) [2]: 2.5
B1: hG7-BM3 (hVH-B2, hVL-B1) (antibody, V domains shown)
VH: QVQLVESGGGVVQPGRSLRLSCAASGFTFSRYWMSWVRQAPGKGLEWIAEINPDSSTINYTPSLRDKFTISRDNSKNTLYLQMSSLRAEDTAVYYCARQGDYWGQGTLVTVSS
VL: DIVMTQTPLSLSVTPGQPASISCKSSQSLLHSDGKTYLNWYLQKPGQSPQRLIYLVSKLDSGVPDRFSGSGSGTDFTLKISRVEAEDVGVYYCWQGAHFPYTFGQGTKLEIK

binding rate to BEL-7402 cells [1]: 54.5%
binding rate to Huh-7 cells [1]: 58.2%
B2: hG7-BM1 (hVH-B1, hVL-B1) (antibody, V domains shown)
VH: B1 VH with K67R
VL: B1 VL

Residue numbers refer to the chain shown, from its start. Each block holds one binder with its values, some of them ahead of it.
